Test results from PubChem BioAssay AID652082 (The Scripps Research Institute Molecular Screening Center, 2013).
Calls of active or inactive are those of the source. No rule for the calls is given here.

The chains behind the UniProt entries cited, without tags or fusion partners. Where a name states a change or a piece, a line headed by the entry shows the natural chain unless it says otherwise.
UniProt P41145: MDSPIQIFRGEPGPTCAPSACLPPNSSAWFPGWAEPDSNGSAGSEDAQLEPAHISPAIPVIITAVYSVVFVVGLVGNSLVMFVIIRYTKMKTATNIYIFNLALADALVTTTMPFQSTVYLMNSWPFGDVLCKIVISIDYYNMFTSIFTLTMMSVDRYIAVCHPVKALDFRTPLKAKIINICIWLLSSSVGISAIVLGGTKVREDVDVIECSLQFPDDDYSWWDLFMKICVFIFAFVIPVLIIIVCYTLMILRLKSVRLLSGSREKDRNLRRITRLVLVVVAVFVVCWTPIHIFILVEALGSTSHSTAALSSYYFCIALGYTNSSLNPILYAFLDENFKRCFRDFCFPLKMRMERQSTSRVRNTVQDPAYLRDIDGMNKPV

Target: Kappa-type opioid receptor (Homo sapiens) (UniProt P41145)
Assay: kappa opioid receptor blockers, retest – cell-based, fluorescence, confirmation (AID 652082)
Conditions: OPRK1 cell line, fluorescence antagonist read-out; at 9 µM; stronger effect = higher value

Cc1csc2c(NC3CCN(Cc4ccccc4)CC3)ncnc12
inhibition: inactive: 43.3%
